ChEMBL document CHEMBL1125752, “Relationship between tissue selectivity and lipophilicity for inhibitors of HMG-CoA reductase” (J Med Chem, 1991)

Target: T1, 3-hydroxy-3-methylglutaryl-coenzyme A reductase (Rattus norvegicus, UniProt P51639)
T1 sequence (P51639 whole entry): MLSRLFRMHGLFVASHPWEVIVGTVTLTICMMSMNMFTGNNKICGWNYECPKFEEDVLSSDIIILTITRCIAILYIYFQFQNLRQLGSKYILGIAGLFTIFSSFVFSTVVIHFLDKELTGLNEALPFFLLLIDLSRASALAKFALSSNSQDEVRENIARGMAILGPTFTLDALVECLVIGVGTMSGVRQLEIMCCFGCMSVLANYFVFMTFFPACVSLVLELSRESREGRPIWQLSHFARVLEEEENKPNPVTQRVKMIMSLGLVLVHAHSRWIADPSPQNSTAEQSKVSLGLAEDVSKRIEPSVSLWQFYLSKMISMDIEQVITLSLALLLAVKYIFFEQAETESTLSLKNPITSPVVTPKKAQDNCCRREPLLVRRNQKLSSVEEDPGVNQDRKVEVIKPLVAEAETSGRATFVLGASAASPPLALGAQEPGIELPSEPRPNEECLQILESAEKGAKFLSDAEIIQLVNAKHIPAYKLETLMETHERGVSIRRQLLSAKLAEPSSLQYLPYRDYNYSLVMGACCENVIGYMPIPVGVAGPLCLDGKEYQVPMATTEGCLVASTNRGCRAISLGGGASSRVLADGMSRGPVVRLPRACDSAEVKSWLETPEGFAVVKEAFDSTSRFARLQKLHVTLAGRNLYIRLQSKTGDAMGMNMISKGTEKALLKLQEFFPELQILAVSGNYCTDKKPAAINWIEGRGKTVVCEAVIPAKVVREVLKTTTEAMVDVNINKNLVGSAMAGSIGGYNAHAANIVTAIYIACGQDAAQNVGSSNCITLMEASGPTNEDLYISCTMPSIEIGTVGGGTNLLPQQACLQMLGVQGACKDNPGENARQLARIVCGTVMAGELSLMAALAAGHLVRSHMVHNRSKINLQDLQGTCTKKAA
Assay: Ability to inhibit microsomal preparation of HMG-CoA reductase in rat liver.

## CC(C)c1c(C(=O)Nc2ccccc2)c(-c2ccccc2)c(-c2ccc(F)cc2)n1CC[C@@H](O)C[C@@H](O)CC(=O)O
  IC50: 7.5 nM
